What was measured:
[1] = molecular target: C-Raf kinase (SEQ. ID NO: 3) (Homo sapiens (Human), UniProt P04049, Y340D/Y341D); assay: Biochemical Assay for C-Raf (1); conditions: read-out: CRAF (1) IC50; Table J, assay version (1)
Description: Biochemical Assay for C-Raf (1)
(§1) Activity of C-Raf kinase (SEQ. ID NO: 3) was determined spectroscopically using a coupled pyruvate kinase/lactate dehydrogenase assay that continuously monitors the ATP hydrolysis-dependent oxidation of NADH (e.g., Schindler et al., Science, 2000, 289, 1938-1942). Assays were conducted in 384-well plates (100 μL final volume) using 0.43 nM C-Raf (Sigma), 1.5 units pyruvate kinase, 2.1 units lactate dehydrogenase, 1 mM phosphoenol pyruvate, 0.28 mM NADH, 30.1 nM MEK (SignalChem), and 1 mM ATP in assay buffer (100 mM Tris, Ph 7.5, 15 mM MgCl2, 0.5 mM DTT, 0.1% octyl-glucoside, 0.002% (w/v) BSA, and 0.002% Triton X-100). Inhibition of C-Raf was measured by adding serial diluted test compound (final assay concentration of 1% DMSO). A decrease in absorption at 340 nm was monitored continuously for 6 h at 30° C. on a multi-mode microplate reader (BioTek). The reaction rate was calculated using the 4 to 5 h time frame. The reaction rate at each concentration of compound was converted to percent inhibition using controls (i.e., reaction with no test compound and reaction with a known inhibitor) and IC50 values were calculated by fitting a four-parameter sigmoidal curve to the data using Prism (GraphPad software).

The chains behind the UniProt entries cited, without tags or fusion partners. Where a name states a change or a piece, a line headed by the entry shows the natural chain unless it says otherwise. A line that says so, or that is headed by a name, gives the form on record, which may keep a tag or linker. Residues count along the entry.
UniProt P04049, 307-648 Y340D/Y341D limits assumed: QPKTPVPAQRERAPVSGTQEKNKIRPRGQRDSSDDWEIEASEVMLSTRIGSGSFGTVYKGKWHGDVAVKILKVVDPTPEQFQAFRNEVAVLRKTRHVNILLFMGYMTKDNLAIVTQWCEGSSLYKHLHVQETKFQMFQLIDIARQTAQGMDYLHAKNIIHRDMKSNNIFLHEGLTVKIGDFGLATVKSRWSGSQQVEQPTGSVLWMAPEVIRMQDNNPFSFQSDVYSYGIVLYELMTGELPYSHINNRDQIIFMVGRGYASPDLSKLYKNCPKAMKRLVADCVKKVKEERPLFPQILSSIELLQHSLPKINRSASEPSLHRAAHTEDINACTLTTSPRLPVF
UniProt P15056, 416-766 limits assumed: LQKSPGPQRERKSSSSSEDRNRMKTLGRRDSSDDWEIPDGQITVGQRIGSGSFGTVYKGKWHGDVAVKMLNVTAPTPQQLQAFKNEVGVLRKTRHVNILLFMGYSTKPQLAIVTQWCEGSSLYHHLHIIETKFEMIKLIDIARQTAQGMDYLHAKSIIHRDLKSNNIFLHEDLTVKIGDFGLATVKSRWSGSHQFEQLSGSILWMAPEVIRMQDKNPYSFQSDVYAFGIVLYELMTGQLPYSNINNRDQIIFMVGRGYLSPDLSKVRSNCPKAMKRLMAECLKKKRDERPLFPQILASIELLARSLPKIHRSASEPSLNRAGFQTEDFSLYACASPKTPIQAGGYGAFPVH
UniProt P15056, 416-766 V600E limits assumed: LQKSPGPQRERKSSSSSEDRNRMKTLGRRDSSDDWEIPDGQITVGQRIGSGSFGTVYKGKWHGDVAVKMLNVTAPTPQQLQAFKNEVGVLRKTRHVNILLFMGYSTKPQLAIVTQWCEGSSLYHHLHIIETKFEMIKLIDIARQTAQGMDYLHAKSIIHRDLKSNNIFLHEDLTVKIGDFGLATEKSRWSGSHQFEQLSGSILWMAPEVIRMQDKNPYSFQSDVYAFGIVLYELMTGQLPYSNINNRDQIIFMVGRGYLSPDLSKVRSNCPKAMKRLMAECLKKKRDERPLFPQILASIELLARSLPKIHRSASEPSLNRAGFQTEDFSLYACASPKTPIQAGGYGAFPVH
UniProt P10398, 273-606 with tags or gaps Y301D/Y302D limits assumed: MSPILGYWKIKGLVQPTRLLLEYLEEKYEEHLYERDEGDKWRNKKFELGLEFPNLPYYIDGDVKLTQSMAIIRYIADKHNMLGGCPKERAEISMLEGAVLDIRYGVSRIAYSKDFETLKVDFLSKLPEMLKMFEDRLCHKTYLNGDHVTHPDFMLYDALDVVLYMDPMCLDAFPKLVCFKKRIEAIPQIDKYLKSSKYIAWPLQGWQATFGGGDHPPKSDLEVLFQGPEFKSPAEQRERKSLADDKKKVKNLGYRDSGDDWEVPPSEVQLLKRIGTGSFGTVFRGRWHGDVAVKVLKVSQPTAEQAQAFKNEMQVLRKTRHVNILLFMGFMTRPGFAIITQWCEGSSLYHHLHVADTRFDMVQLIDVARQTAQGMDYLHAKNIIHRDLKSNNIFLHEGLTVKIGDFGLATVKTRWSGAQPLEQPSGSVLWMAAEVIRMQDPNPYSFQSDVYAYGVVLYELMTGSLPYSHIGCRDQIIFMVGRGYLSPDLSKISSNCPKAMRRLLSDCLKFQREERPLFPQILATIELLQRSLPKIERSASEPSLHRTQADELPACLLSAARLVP

[2] = molecular target: B-Raf (V600E) (SEQ. ID NO: 4) kinase (Homo sapiens (Human), UniProt P15056, V600E); assay: Biochemical Assay for B-Raf (V600E) (1); conditions: read-out: BRAF VE (1) IC50, Table J, assay version (1)
Description: Biochemical Assay for B-Raf (V600E) (1)
Activity of B-Raf (V600E) (SEQ. ID NO: 4) kinase was determined spectroscopically using a coupled pyruvate kinase/lactate dehydrogenase assay that continuously monitors the ATP hydrolysis-dependent oxidation of NADH (e.g., Schindler et al., Science, 2000, 289, 1938-1942). Assays were conducted in 384-well plates (100 μL final volume) using 0.03 nM B-Raf (SignalChem), 1.5 units pyruvate kinase, 2.1 units lactate dehydrogenase, 1 mM phosphoenol pyruvate, 0.28 mM NADH, 30.1 nM MEK (SignalChem), and 1 mM ATP in assay buffer (100 mM Tris, Ph 7.5, 15 mM MgCl2, 0.5 mM DTT, 0.1% octyl-glucoside, 0.002% (w/v) BSA, and 0.002% Triton X-100). Inhibition of B-Raf (V600E) was measured by adding serial diluted test compound (final assay concentration of 1% DMSO). A decrease in absorption at 340 nm was monitored continuously for 6 h at 30° C. on a multi-mode microplate reader (BioTek). The reaction rate was calculated using the 3 to 4 h time frame. The reaction rate at each concentration of compound was converted to percent inhibition using controls (i.e., reaction with no test compound and reaction with a known inhibitor) and IC50 values were calculated by fitting a four-parameter sigmoidal curve to the data using Prism (GraphPad software).

[3] = molecular target: A-Raf kinase (SEQ. ID No: 1) (Homo sapiens (Human), UniProt P10398, Y301D/Y302D); assay: Biochemical Assay for A-Raf (1); conditions: read-out: ARAF (1) IC50; Table J, assay version (1)
Description: Biochemical Assay for A-Raf (1)
as §1, with “A-Raf” for “C-Raf”, “No: 1)” for “NO: 3)”, “5.55” for “0.43”, “pH” for “Ph”

A375 cells = assay: A375 Cell Proliferation Assay (1); conditions: read-out: A375 (1) IC50
Description: For Table J, “+” refers to an IC50 less than or equal to 100 nM; “++” refers to an IC50 greater than 100 nM and less than or equal to 500 nM; “+++” refers to an IC50 greater than 500 nM and less than or equal to 1000 nM; and “++++” refers to an IC50 greater than 1000 nM and less than or equal to 10000 nM. A375 Cell Proliferation Assay (1)
(§2) A375 cells (catalog (#CRL-1619) are obtained from the American Type Culture Collect (ATTC, Manassas, VA). Briefly, cells were grown in DMEM High Glucose supplemented with 10% characterized fetal bovine serum (Invitrogen, Carlsbad, CA) and 1% Penicillin/Streptomycin/L-Glutamine at 37° C., 5% CO2, and 95% humidity. Cells are expanded until reaching 70-95% confluency at which point they are sub-cultured or harvested for assay use. A serial dilution of test compound is dispensed into a 96-well black clear bottom plate in triplicate. Two thousand five hundred cells are added per well in 200 μL complete growth medium in the 96-well plate. Plates are incubated for 67-72 h at 37° C., 5% CO2, and 95% humidity. At the end of the incubation, 40 μL of a 440 μM solution of resazurin (Sigma, St. Louis, MO) in PBS is added to each well of the plate and plates are incubated for an additional 5-6 h at 37° C., 5% CO2, and 95% humidity. Plates are read on a Synergy2 or equivalent reader (Biotek, Winooski VT) using an excitation of 540 nm and an emission of 600 nm. Data is analyzed using Prism software (GraphPad, San Diego, CA) to calculate IC50 values.

[4] = molecular target: B-Raf kinase (SEQ. ID NO: 2) (Homo sapiens (Human), UniProt P15056); assay: Biochemical Assay for B-Raf (1); conditions: read-out: BRAF (1) IC50; Table J, assay version (1)
Description: Biochemical Assay for B-Raf (1)
as §1, with “B-Raf” for “C-Raf”, “2)” for “3)”, “0.13” for “0.43”

H2405 cells = assay: H2405 Cell Proliferation Assay (1); conditions: read-out: H2405 (1) IC50
Description: H2405 Cell Proliferation Assay (1)
as §2, with “H2405” for “A375”, “#CRL-5994)” for “(#CRL-1619)”, “RPMI 1640” for “DMEM High Glucose”, “5%” for “10%”, “Three” for “Two”, “thousand” for “thousand five hundred”

WM3928 cells = assay: WM3928 Cell Proliferation Assay (1); conditions: read-out: WM3928 (1) IC50
Description: WM3928 Cell Proliferation Assay (1)
WM3928 cells (#WM3928-01-0001) are obtained from Rockland Immunochemicals Inc (Gilbertsville, PA). Briefly, cells were grown in MCDB 153 medium (Sigma, #M7403, St. Louis, MO) supplemented with 20% Leibovitz's L-15 (ThermoFisher #11415-064, Waltham, MA), 2% heat inactivated fetal bovine serum (ThermoFisher, #A3840001, Waltham, MA), 5 μg/mL Insulin (Bovine Pancreas) (Sigma, #I0516, St. Louis, MO), 1.68 mM Calcium Chloride (Sigma, #C-34006, St. Louis, MO) and 1% Penicillin/Streptomycin/L-Glutamine (ThermoFisher #10378016, Waltham, MA) at 37° C., 5% CO2, and 95% humidity. Cells are expanded until reaching 70-95% confluency at which point they are subcultured or harvested for assay use. A serial dilution of test compound is dispensed into a 96-well black clear bottom plate in triplicate. Three thousand cells are added per well in 200 μL complete growth medium in the 96-well plate. Plates are incubated for 67-72 hours at 37° C., 5% CO2, and 95% humidity. At the end of the incubation, 40 μL of a 440 μM solution of resazurin (Sigma, #199303, St. Louis, MO) in PBS is added to each well of the plate and plates are incubated for an additional 6-7 hours at 37° C., 5% CO2, and 95% humidity. Plates are read on a Synergy2 or equivalent reader (Biotek, Winooski VT) using an excitation of 540 nm and an emission of 600 nm. Data is analyzed using Prism software (GraphPad, San Diego, CA) to calculate IC50 values.

| IC50 [1] [nM] | IC50 [2] [nM] | IC50 [3] [nM] | IC50 (A375 cells) [nM] | IC50 [4] [nM] | IC50 (H2405 cells) [nM] | SMILES | IC50 (WM3928 cells) [nM] |
| --- | --- | --- | --- | --- | --- | --- | --- |
| < 100 | < 100 | 100 to 500 | < 100 | < 100 | – | Cc1ccc(NC(=O)c2ccnc(C(C)(C)C#N)c2)cc1-c1ccnc(-c2ccnc(NC(=O)CC#N)c2)n1 | – |
| – | – | – | 1000 to 10000 | – | 1000 to 10000 | Cc1ccc(NC(=O)c2cc(C(F)(F)F)c(=O)n(C)c2)cc1-c1cc(-c2ccnc(NC(=O)C3CC3)c2)cnn1 | 100 to 500 |

Reference: patent US12319655B2, “RAF kinase inhibitors and methods of use thereof” (Deciphera Pharmaceuticals, LLC, priority 2021, dated 2025)
